## Ab-14 heavy chain CDR variants: yeast mating affinities

Source: Li et al. 2023 (doi:10.1038/s41467-023-39022-2), MIT Lincoln Laboratory and A-Alpha Bio; data file from the FLAb repository.

Target: peptide PDVDLGDISGINAS, taken from heptad repeat 2 (HR2) of SARS-CoV-2 spike.

Ab-14 is the parent antibody, in scFv form: VH, then three GGGGS repeats, then VL. The light chain is unchanged in all variants.
VH: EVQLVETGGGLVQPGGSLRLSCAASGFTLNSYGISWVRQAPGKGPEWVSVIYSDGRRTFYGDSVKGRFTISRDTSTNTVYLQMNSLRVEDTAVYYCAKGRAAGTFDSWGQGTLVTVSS
VL: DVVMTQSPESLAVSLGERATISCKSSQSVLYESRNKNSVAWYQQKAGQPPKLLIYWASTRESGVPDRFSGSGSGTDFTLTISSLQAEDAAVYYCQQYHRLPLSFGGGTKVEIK

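These sequences belong to a second round, designed from the earlier measurements on random variants of the parent. Several design methods are mixed in this list. AlphaSeq pools MATa yeast showing the antibodies with MATalpha yeast showing the peptide. Binding brings cells together so that they mate, and sequencing counts the barcode pairs among the diploids. A regression on co-assayed BCL2-family reference pairs converts the normalised counts of each replicate to an apparent Kd. There are six technical replicates.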

The parent's heavy chain CDRs are GFTLNSYGIS, VIYSDGRRTFYGDSVK, GRAAGTFDS; each variant's own CDRs replace them letter for letter.
Affinities are written as log10 Kd with Kd in nM; a lower number is a better binder.
Replicates are averaged; those with no signal do not enter the mean.
A pair that was not seen in any replicate is written "nd"; this usually means weak binding, but a binder can also be missed.
The authors' rule: three or more of the six replicates give a measured affinity, fewer mean a poor binder.
Where one sequence has several entries in the source, the replicates are pooled.
As a blank, each scFv also met three strains without target: over all heavy chain designs, 1% of these pairings were detected, typically at 2.08 and seldom below 0.84. The control count says in how many pairings with the empty strains this scFv gave a signal.
The range of this assay differs from that of the first round, and the authors advise against merging the two.
Of ten entries with the parent sequence, four were seen in most replicates (averages 0.34 to 2.37), three in one and three in none, so single entries are noisy.

mean log10 Kd (nM),seen in,signal with controls,CDR-H1,CDR-H2,CDR-H3
0.25,6/6,1/18,GFGLNEYGIS,VIYSDGRRTFYGDSVK,GKTAGTFDS
-0.33,6/6,0/18,GFDLNEYGIS,VIYADGRRTAYADSVK,GSNAGTFDL
0.14,6/6,0/18,GFTLNQYGIS,VIYSDGRRTFYSDSVK,GRQAGTFDT
0.98,6/6,1/18,GFTLNDYGIS,VIYSDGRRTAYQDSVK,GRAAGTFVS
-0.70,6/6,0/18,GFDLNEYGIS,VIYADGMRTAYADNVK,GNTAGTFDV
nd,0/6,0/18,GFTLNSYGIS,VIYSDGRRTFYSDSVK,GVAGGTFDV
-0.77,6/6,0/18,GFDLDEYGIS,VIYADGRRTYYADSVK,GNVAGTFDQ
0.14,6/6,0/18,GFTLNEYGIS,VIYSDGIRTFYGDSVK,GRTAGTFDS
-0.12,6/6,0/18,GFDLNEYGIS,VIYSDGRRTFYTDSVK,GRQAGTFDS
nd,0/6,1/18,GFTLNSYGIS,VIYSDGRRTDYDDSVK,GQLAGTFDS
nd,0/6,0/18,GFCLNSYGIS,VIYSDGRRTFYQDSVK,GSAAGTFDS
-0.15,6/6,0/18,GFDLNEYGIS,VIYADGRRTFYADSVK,GTNAGTFDF
nd,0/6,0/18,GFDLNEYGIS,VIYADGKKTGFVNTVK,GESGGNFDD
nd,0/6,1/18,GFDLGEYGIS,VIYADGQRKSYADSVK,GQSSVYMTA
0.18,6/6,0/18,GFSLNEYGIS,VIYSDGRRTFYGDSVK,GRTAGTFDI
-0.14,6/6,2/18,GFDLNSYGIS,VIYSDGRRTFYGDSVK,GRTAGTFDQ
nd,0/6,0/18,GFTLNSYGIS,VIYSDGRRTAYGDSVK,GMAAGTFIS
-0.05,6/6,0/18,GFDLDEYGIS,VIYADGMRTAYADSVK,GNEAGTFDT
-0.22,6/6,0/18,GFDLDEYGIS,VIYADGQRTAYSDSVK,GETAGTFDL
-0.17,6/6,3/18,GFDLNEYGIS,VIYADGMRSAYADSVK,GENAGTFDV
nd,0/6,0/18,GFSLNSYGIS,VIYSCGRRTFYGDSVK,GRAAGTFDS
-0.14,6/6,0/18,GFGLNEYGIS,VIYSDGRRTFYSDSVK,GRQAGTFDS
2.36,6/6,1/18,GFTINDYGIS,VIYSDGRRTFYGDSVK,GRAAGTFES
0.35,6/6,0/18,GFNLDEYGIS,VIYADGRRTFYADSVK,GQVAGTFVS
nd,0/6,2/18,GFKLEEYGIS,VIYADGKRVAYQDAVK,GKHAGMFLV
-0.54,6/6,0/18,GFTLNSYGIS,VIYSDGRRTFYGDSVK,GTEAGTFDT
nd,0/6,0/18,GFDLNSYGIS,VIYSDGRRTFYGDSVK,GRAAGHFES
-0.66,6/6,1/18,GFDINEYGIS,VIYADGVRTFYADSVK,GQTAGTFDV
-0.63,6/6,2/18,GFDLDEYGIS,VIYADGQRTFYADSVK,GNNAGTFDV
nd,0/6,0/18,GFTLNEYGIS,VIYSDGRRTFYVDRVK,RQAAGPFDS
nd,0/6,0/18,GMDLNEYGIS,VIYADGLRTAYIDAVK,GKGSVIIGH
0.43,12/12,2/36,GFTLNSYGIS,VIYSDGRRTFYSDSVK,GRTAGTFDS
1.30,6/6,0/18,GFNLNSYGIS,VIYSDGRRTFYIDDVK,GQAAGTFDS
-0.58,6/6,0/18,GFDLDEYGIS,VIYADGMRTYYADSVK,GNEAGTFDV
2.06,2/6,1/18,GFDLMEYGIS,VIYADGKRFSYIDDVK,GYSTGFLTV
nd,0/6,0/18,GFNLKEYGIS,VIYADGVRAQYAESVK,GTYSGKFGM
nd,0/6,0/18,GFTLNQYGIS,VIYSDGRRTFRSDSVK,GRAAGFFDS
2.17,5/6,0/18,GFDIQDYGIS,VIYADGSRTAYVNSVK,GEQGASYDL
0.67,4/6,0/18,GFSLNSYGIS,VIYSDGRRTFYADSVK,GQAAGTFDN
nd,0/6,0/18,GFTLNSYGIS,VIYSDGRRTFYSDSVK,GRAAVTFDT
-0.23,6/6,0/18,GFDLNEYGIS,VIYADGRRTAYSDSVK,GQVAGTFDV
nd,0/6,0/18,GFNLDEYGVS,VIYADGKRTQYTNNFK,GENAGFFML
1.79,4/6,0/18,GDGLEEYGIS,VIYADGMRESYVDDVK,GQKGGTFNL
1.13,3/6,0/18,GFELNSYGIS,VIYADGRRTFYGDSVK,GRAAGTFDC
0.04,3/6,0/18,GFTLNEYGIS,VIYSDGRRTFYGDSVK,GRAAWTFIS
-0.38,6/6,0/18,GFDLNEYGIS,VIYADGMRTAYADSVK,GQTAGTFDL
-0.79,6/6,0/18,GFDLNEYGIS,VIYADGMRTAYSDDVK,GEVAGTFDI
2.03,1/6,0/18,GFNLDEYGIS,VIYADGKREAYANKVK,GEQGSFFIT
nd,0/6,0/18,GFNLDEYGIS,VIYADGMRTAYGNNVK,GTVFGDYVS
-0.78,6/6,0/18,GFDLNEYGIS,VIYADGKRTAYSDSVK,GQNAGTFDI
nd,0/6,0/18,GFDLDKYGIS,VIYADGRRKFYQNQFK,GGQAGTFVI
-0.10,6/6,0/18,GFSLNTYGIS,VIYSDGRRTFYADSVK,GTAAGTFDS
nd,0/6,0/18,GFTLNTYGIS,VIYSDGWRTFYTDSVK,GRFCGTFDS
-0.30,6/6,0/18,GFDLNEYGIS,VIYADGMRTAYADAVK,GENAGTFDV
-0.31,6/6,2/18,GFDLNSYGIS,VIYSDGKRTFYGDSVK,GRTAGTFDT
-0.39,6/6,1/18,GFDLNEYGIS,VIYADGKRTFYADSVK,GNTAGTFLS
-0.32,6/6,0/18,GFDLDEYGIS,VIYADGMRTAYTDSVK,GNNAGTFDI
3.08,1/6,1/18,GFTLNSYGIS,VIYSDGRRTFYGDSVK,VREAGTFSS
1.21,5/6,0/18,GFTLNDYGIS,VIYSDGQRTFYGDSVK,GRHAGTTDS
1.98,1/6,0/18,GFTLESYGIS,VIYSDGRRTFYVDSVK,GQAAGTFDS
nd,0/6,0/18,GFTLNNYGRS,VIYSDGRRTFYGDSVK,GRAAGTFDS
1.24,6/6,0/18,GFTLNSYGIS,VIYSDGKRTFYSDSVE,GRTAGTFDS

The last 6 entries again:

CDR-H1	CDR-H2	CDR-H3	mean log10 Kd (nM)	seen in	signal with controls
GFDLDEYGIS	VIYADGMRTAYTDSVK	GNNAGTFDI	-0.32	6/6	0/18
GFTLNSYGIS	VIYSDGRRTFYGDSVK	VREAGTFSS	3.08	1/6	1/18
GFTLNDYGIS	VIYSDGQRTFYGDSVK	GRHAGTTDS	1.21	5/6	0/18
GFTLESYGIS	VIYSDGRRTFYVDSVK	GQAAGTFDS	1.98	1/6	0/18
GFTLNNYGRS	VIYSDGRRTFYGDSVK	GRAAGTFDS	nd	0/6	0/18
GFTLNSYGIS	VIYSDGKRTFYSDSVE	GRTAGTFDS	1.24	6/6	0/18